A word on the pEC50: it is the negative decadic logarithm of the EC50, by convention in mol/L. High values mean a small EC50, low ones a large EC50.

Chains of the proteins cited; added tags and fusions are not shown.
UniProt O75762, whole entry, looked up: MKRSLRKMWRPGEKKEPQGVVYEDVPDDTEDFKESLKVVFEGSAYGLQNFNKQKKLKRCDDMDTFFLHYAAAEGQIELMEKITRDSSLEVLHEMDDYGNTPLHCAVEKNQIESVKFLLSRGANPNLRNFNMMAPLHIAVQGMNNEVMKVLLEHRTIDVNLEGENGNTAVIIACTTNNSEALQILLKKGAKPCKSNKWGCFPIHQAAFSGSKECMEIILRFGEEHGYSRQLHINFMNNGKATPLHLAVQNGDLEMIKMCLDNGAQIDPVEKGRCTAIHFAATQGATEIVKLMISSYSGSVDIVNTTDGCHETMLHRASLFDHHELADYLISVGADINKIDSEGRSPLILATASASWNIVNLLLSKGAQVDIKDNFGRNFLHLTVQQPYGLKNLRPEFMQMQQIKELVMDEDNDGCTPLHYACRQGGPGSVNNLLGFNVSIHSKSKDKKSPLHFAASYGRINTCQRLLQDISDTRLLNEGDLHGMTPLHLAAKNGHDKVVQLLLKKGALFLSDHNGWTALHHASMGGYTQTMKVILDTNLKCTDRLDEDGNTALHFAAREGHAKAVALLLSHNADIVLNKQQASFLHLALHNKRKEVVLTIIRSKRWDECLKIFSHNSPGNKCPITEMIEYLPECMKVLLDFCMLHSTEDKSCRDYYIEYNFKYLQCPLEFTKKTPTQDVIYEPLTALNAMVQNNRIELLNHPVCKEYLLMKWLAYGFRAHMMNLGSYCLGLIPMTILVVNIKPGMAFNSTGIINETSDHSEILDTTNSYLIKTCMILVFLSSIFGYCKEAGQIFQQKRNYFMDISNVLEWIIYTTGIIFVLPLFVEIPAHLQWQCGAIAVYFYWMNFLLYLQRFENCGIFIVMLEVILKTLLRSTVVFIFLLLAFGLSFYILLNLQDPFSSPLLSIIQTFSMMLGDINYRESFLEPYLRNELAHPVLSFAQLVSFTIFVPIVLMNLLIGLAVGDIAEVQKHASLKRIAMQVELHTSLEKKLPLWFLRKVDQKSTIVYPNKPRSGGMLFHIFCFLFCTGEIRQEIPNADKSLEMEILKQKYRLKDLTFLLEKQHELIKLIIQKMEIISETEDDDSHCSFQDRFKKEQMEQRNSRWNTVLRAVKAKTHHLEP

We go through one molecule from ChEMBL document CHEMBL1255565.

In the assay the target is Transient receptor potential cation channel subfamily A member 1 (Homo sapiens, UniProt O75762). Kind of assay: Agonist activity at human TRPA1 expressed in T-REx-HEK293 cells at -75 mV holding potential by patch-clamp electrophysiology. Background: Patch clamp records ionic current or voltage across a cell membrane.

In turn, `S=C=NCc1ccccc1` showed a pEC50 of 4.56.
